Measurements taken from ChEMBL document CHEMBL1153299, “Carbonic anhydrase activators: activation of the beta-carbonic anhydrase Nce103 from the yeast Saccharomyces cerevisiae with amines and amino acids” (Bioorg Med Chem Lett, 2009).

Experiments:
[1] = system: Methanothermobacter thermautotrophicus; experiment: Activation of Methanothermobacter thermautotrophicus recombinant Cab by stopped-flow CO2 hydrase method
[2] = target: T1, Carbonic anhydrase (Saccharomyces cerevisiae S288c) (UniProt P53615); experiment: Activation of yeast recombinant CA by stopped-flow CO2 hydrase method
T1 sequence (whole entry): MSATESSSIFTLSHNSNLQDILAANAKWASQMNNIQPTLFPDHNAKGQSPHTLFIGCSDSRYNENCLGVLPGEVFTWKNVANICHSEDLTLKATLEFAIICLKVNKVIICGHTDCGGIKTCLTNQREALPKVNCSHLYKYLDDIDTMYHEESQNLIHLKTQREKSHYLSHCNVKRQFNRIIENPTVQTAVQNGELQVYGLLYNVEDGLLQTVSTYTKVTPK
Method in brief: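 Yeast Nce103 gene PCR-amplified from genomic DNA and expressed in E. coli BL21(DE3), then purified. Activator and enzyme preincubated 15 min at room temperature. Stopped-flow CO2 hydration at 25 °C, 20 mM Tris pH 8.3, 20 mM NaClO4, 0.2 mM phenol red read at 557 nm over 10 s, CO2 1.7–17 mM. Initial rates taken from at least six traces, uncatalyzed rate subtracted. KA fitted from catalytic enhancement versus activator concentration; mean of three determinations.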

Ka [1] [µM]	Ka [2] [µM]	SMILES
70	86	N[C@@H](Cc1ccccc1)C(=O)O
10.3	86	N[C@H](Cc1ccccc1)C(=O)O
